The source of these data is PubChem BioAssay AID2099 (Broad Institute, 2009).

The chains behind the UniProt entries cited, without tags or fusion partners. Residues count along the entry.
UniProt Q9H3R0, 1-420 limits assumed: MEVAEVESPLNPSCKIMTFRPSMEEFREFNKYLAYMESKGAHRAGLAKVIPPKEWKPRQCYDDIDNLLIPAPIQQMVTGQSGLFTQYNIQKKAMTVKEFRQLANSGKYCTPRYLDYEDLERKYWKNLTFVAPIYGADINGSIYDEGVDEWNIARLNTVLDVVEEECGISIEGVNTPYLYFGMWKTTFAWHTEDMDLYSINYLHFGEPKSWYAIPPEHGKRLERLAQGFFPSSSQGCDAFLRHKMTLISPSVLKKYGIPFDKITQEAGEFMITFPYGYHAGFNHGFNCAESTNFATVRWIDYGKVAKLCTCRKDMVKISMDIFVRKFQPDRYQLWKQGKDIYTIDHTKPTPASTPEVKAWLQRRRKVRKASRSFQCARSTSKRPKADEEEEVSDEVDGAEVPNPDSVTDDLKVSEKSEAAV

By inhibition is commonly meant the change of the read-out against control, counted positive when it falls.

The structures appear in SMILES notation. Several values for one entry are separate records, joined by “and”; a condition that tells them apart may be missing. Identical values can stand only once. The list shows a part of the results, in another mix than the full data. Some results for these compounds are left out of this collection, so the calls shown say nothing about other tests. Activity calls are given as the source filed them.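 How the source made its calls: active means more than half of a compound's replicate wells show inhibition beyond 50%, single wells judged on their own value; inconclusive means some, but no more than half, of replicates pass 50% inhibition; inactive means no replicate passes 50% inhibition.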

This test concerns the target Lysine-specific demethylase 4C (Homo sapiens) (UniProt Q9H3R0). Nature of the test: JMJD2C H3K9me3 demethylation blockers – biochemical, fluorescence, DELFIA europium, primary screen (AID 2099).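 Further: signal counts dimethyl H3K9 product captured on neutravidin plate; 0% = median of DMSO wells and 100% = 0.3 times that DMSO median.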 The settings on record: GST-JMJD2C(1-420) H3K9me3 demethylation, at 2.35 µM, active compounds read high.
As for `Cc1ccccc1C(=O)NCC1(N2CCCCC2)CCCCC1`, the inhibition was inactive: -1.28%. On to `CN(C)C1CCCC1OC(=O)C(O)(c1ccccc1)c1ccccc1` (centres undefined), for which the inhibition is inactive: 11.4%. Then `CN(C)c1ccc(C(=O)NCC2(N(C)C)CCCCC2)cc1`, with inactive: -10.3%; and `C=CCN1CCN(CCOC(=O)C(O)(c2ccccc2)c2ccccc2)CC1`, with inactive: 1.2%.

For `O=C(NCC1(N2CCCCC2)CCCCC1)c1cc(F)c(F)cc1Cl`, the inhibition is inactive: -3%. Consider `COc1ccc(C(=O)NCC2(N(C)C)CCCCC2)cc1`, for which the inhibition is inactive: 0.721%. In the case of `Cc1cc(C(=O)NCC2(N3CCCCC3)CCCCC2)ccc1[N+](=O)[O-]`, the inhibition is inactive: -3.82%.

Consider `CCN1CCCC(OC(=O)C2(O)c3ccccc3C=Cc3ccccc32)C1` (centres undefined), for which the inhibition was inactive: -3.33%. For `O=C(NCC1(N2CCCCC2)CCCCC1)c1cccc(Br)c1`, the inhibition was inactive: 2.96%. Take `O=C(NCC1(N2CCCCC2)CCCCC1)c1cc([N+](=O)[O-])ccc1Cl`: the inhibition is inactive: -13%. To `CN1[C@@H]2CC[C@H]1CC(OC(=O)C(O)(c1ccccc1)c1ccccc1)C2` (some centres undefined) belongs inactive: 0.591%; to `CCN(CC)CC(C)C(C)OC(=O)C(O)(c1ccccc1)c1ccccc1` (centres undefined), inactive: -4.8%; to `COc1cc(SC)ccc1C(=O)NCC1(N(C)C)CCCCC1`, inactive: -5.38%. For the compound `CC(C)N1C(=O)CC2(CCN(CCOC(=O)C(O)(c3ccccc3)c3ccccc3)CC2)C1=O`, the inhibition was inactive: -9.4%.

In the case of `Cc1ccc(C(=O)NCC2(N3CCCCC3)CCCCC2)cc1`, the inhibition is inactive: -6.23%. Then `O=C(OC1CN2CCC1CC2)C(CO)(c1ccccc1)c1ccccc1` (centres undefined), with inactive: -3.24% and inactive: 22.6%; and `COc1ccc(Br)c(C(=O)NCC2(N3CCCCC3)CCCCC2)c1`, with inactive: 14.9%; and `CC(C)Oc1ccc(C(=O)NCC2(N(C)C)CCCCC2)cc1`, with inactive: -9.43%. Regarding `CN(C)c1cccc(C(=O)NCC2(N(C)C)CCCCC2)c1`, the inhibition was inactive: -4.16%. To `CN(C)C1(CNC(=O)c2ccc(Br)cc2)CCCCC1` belongs inactive: -19.7%; to `COc1cc(C(=O)NCC2(N(C)C)CCCCC2)c([N+](=O)[O-])cc1OC`, inactive: 11%. For `COc1cccc(C(=O)NCC2(N3CCCCC3)CCCCC2)c1`, the inhibition is inactive: 0.327%. Then `COc1ccc(Cl)cc1C(=O)NCC1(N(C)C)CCCCC1`, with inactive: -2.2%; and `O=C(NCC1(N2CCCCC2)CCCCC1)c1cccc(Cl)c1`, with inactive: -29.3%.
